Test in all cases: cell-based or functional assay
Assay [1] has as its target T1, Pol III α-subunit Y1119A of the Pol III core (αεθ) (E. coli, UniProt P10443 1-1160, Y1119A).
T1 sequence: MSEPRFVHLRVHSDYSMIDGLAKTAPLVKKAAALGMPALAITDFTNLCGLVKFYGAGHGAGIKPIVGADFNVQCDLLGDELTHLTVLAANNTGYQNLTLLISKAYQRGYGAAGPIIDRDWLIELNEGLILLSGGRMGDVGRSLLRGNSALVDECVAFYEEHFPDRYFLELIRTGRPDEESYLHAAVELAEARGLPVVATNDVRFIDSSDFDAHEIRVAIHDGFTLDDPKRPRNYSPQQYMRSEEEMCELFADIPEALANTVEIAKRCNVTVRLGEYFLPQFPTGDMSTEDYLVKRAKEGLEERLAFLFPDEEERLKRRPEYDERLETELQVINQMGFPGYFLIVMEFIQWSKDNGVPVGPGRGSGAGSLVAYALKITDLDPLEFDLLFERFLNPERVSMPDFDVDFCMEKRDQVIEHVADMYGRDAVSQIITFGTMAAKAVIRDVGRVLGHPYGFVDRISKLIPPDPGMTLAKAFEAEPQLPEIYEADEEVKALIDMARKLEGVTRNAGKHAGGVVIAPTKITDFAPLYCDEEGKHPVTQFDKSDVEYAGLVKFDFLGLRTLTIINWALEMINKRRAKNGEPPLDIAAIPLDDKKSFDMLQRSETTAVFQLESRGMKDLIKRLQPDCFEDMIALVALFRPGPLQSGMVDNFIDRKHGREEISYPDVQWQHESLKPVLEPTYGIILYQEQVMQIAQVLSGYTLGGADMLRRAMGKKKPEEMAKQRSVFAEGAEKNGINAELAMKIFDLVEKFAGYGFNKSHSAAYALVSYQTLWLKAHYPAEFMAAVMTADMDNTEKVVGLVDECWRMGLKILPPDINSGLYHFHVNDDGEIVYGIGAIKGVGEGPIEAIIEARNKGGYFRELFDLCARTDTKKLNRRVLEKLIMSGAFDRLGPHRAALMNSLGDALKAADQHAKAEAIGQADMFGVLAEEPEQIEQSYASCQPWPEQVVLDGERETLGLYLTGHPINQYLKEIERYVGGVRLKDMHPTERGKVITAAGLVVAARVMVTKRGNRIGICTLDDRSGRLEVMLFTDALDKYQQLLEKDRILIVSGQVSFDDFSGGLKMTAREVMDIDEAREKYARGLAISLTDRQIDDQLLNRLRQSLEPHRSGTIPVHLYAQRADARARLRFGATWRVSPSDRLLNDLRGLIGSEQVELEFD

Assay [2] has as its target T2, Pol III α-subunit L1097/8S of the Pol III core (αεθ) (E. coli, UniProt P10443 1-1160, L1097S | L1098S).
T2 sequence: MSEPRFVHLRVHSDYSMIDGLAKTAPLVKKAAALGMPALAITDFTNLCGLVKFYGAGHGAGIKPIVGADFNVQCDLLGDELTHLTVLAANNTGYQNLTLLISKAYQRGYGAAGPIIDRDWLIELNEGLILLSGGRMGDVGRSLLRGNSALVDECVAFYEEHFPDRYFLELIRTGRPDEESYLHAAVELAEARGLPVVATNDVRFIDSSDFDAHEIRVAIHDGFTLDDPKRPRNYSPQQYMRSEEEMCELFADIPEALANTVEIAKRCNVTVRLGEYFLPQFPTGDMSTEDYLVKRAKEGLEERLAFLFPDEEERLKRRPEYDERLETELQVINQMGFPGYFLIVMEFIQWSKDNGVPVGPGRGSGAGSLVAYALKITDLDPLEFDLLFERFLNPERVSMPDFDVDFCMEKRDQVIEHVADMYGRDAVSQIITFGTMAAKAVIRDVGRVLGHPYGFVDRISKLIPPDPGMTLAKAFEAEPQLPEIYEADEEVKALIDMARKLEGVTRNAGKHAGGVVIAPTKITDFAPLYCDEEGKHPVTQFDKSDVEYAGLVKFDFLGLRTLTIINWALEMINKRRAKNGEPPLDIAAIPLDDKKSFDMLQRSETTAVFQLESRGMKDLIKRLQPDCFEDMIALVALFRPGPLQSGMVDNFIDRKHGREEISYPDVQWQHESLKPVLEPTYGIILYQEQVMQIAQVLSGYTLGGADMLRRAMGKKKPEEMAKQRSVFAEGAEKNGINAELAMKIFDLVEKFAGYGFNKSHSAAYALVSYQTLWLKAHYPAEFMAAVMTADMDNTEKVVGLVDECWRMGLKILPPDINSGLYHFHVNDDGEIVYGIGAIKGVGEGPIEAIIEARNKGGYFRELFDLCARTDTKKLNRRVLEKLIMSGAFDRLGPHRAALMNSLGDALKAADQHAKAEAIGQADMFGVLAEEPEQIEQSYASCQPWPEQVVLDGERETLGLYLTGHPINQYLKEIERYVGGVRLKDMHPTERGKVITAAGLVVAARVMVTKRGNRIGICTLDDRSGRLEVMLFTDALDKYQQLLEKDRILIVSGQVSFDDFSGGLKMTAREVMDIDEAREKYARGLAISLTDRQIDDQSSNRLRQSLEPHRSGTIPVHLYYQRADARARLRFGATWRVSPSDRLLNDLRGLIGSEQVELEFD

Assay [3] concerns the target T3, Pol III α-subunit L1128S of the Pol III core (αεθ) (E. coli, UniProt P10443 1-1160, L1128S).
T3 sequence: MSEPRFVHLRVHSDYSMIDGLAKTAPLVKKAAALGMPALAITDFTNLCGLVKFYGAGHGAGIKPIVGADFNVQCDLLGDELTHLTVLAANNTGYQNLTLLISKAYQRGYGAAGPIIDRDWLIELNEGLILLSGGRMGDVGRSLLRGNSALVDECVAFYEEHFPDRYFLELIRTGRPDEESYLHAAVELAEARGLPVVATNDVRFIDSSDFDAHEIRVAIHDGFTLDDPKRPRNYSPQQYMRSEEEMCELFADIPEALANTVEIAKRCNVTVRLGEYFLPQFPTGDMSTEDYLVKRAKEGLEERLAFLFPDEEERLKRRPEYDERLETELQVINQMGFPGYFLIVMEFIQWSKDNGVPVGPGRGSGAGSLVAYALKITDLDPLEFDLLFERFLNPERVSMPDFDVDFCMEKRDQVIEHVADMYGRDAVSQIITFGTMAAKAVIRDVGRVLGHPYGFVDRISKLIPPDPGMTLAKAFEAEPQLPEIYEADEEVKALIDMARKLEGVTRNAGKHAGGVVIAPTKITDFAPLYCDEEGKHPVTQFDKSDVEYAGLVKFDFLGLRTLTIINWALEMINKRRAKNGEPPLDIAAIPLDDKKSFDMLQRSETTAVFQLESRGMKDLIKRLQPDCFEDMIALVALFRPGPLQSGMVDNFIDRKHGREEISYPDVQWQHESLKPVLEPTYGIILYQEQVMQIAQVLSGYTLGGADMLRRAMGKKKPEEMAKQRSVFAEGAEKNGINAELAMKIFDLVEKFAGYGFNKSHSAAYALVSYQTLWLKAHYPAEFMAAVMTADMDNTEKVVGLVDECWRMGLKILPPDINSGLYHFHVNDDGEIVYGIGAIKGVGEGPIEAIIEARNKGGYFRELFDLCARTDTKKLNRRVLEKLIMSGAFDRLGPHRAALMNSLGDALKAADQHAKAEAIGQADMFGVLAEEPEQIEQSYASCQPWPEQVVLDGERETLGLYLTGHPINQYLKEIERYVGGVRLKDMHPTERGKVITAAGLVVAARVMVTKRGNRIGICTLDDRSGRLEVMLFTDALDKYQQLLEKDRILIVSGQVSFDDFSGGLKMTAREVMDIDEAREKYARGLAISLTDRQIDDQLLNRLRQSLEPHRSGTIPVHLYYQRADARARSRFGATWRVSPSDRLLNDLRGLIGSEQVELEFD

B1: clamp loader complex τ3δδ'ψχ (complex, E. coli)
chain 1: MSYQVLARKWRPQTFADVVGQEHVLTALANGLSLGRIHHAYLFSGTRGVGKTSIARLLAKGLNCETGITATPCGVCDNCREIEQGRFVDLIEIDAASRTKVEDTRDLLDNVQYAPARGRFKVYLIDEVHMLSRHSFNALLKTLEEPPEHVKFLLATTDPQKLPVTILSRCLQFHLKALDVEQIRHQLEHILNEEHIAHEPRALQLLARAAEGSLRDALSLTDQAIASGDGQVSTQAVSAMLGTLDDDQALSLVEAMVEANGERVMALINEAAARGIEWEALLVEMLGLLHRIAMVQLSPAALGNDMAAIELRMRELARTIPPTDIQLYYQTLLIGRKELPYAPDRRMGVEMTLLRALAFHPRMPLPEPEVPRQSFAPVAPTAVMTPTQVPPQPQSAPQQAPTVPLPETTSQVLAARQQLQRVQGATKAKKSEPAAATRARPVNNAALERLASVTDRVQARPVPSALEKAPAKKEAYRWKATTPVMQQKEVVATPKALKKALEHEKTPELAAKLAAEAIERDPWAAQVSQLSLPKLVEQVALNAWKEESDNAVCLHLRSSQRHLNNRGAQQKLAEALSMLKGSTVELTIVEDDNPAVRTPLEWRQAIYEEKLAQARESIIADNNIQTLRRFFDAELDEESIRPI
chain 2: MIRLYPEQLRAQLNEGLRAAYLLLGNDPLLLQESQDAVRQVAAAQGFEEHHTFSIDPNTDWNAIFSLCQAMSLFASRQTLLLLLPENGPNAAINEQLLTLTGLLHDDLLLIVRGNKLSKAQENAAWFTALANRSVQVTCQTPEQAQLPRWVAARAKQLNLELDDAANQVLCYCYEGNLLALAQALERLSLLWPDGKLTLPRVEQAVNDAAHFTPFHWVDALLMGKSKRALHILQQLRLEGSEPVILLRTLQRELLLLVNLKRQSAHTPLRALFDKHRVWQNRRGMMGEALNRLSQTQLRQAVQLLTRTELTLKQDYGQSVWAELEGLSLLLCHKPLADVFIDG
chain 3: MRWYPWLRPDFEKLVASYQAGRGHHALLIQALPGMGDDALIYALSRYLLCQQPQGHKSCGHCRGCQLMQAGTHPDYYTLAPEKGKNTLGVDAVREVTEKLNEHARLGGAKVVWVTDAALLTDAAANALLKTLEEPPAETWFFLATREPERLLATLRSRCRLHYLAPPPEQYAVTWLSREVTMSQDALLAALRLSAGSPGAALALFQGDNWQARETLCQALAYSVPSGDWYSLLAALNHEQAPARLHWLATLLMDALKRHHGAAQVTNVDVPGLVAELANHLSPSRLQAILGDVCHIREQLMSVTGINRELLITDLLLRIEHYLQPGVVLPVPHL
chain 4: MTSRRDWQLQQLGITQWSLRRPGALQGEIAIAIPAHVRLVMVANDLPALTDPLVSDVLRALTVSPDQVLQLTPEKIAMLPQGSHCNSWRLGTDEPLSLEGAQVASPALTDLRANPTARAALWQQICTYEHDFFPRND
chain 5: MKNATFYLLDNDTTVDGLSAVEQLVCEIAAERWRSGKRVLIACEDEKQAYRLDEALWARPAESFVPHNLAGEGPRGGAPVEIAWPQKRSSSRRDILISLRTSFADFATAFTEVVDFVPYEDSLKQLARERYKAYRVAGFNLNTATWK
As for B1, the “leading strand synthesis rate for products greater than 23 kb in the whole replisome TFII rolling circle assay, fold lower than WT” value in assay [1] is 2 fold; in assay [2], greater than 20 fold; in assay [3], 4 fold.

Source of the values: PMC11869525, “Replisomal coupling between the α-pol III core and the τ-subunit of the clamp loader complex (CLC) are essential for genomic integrity in Escherichia coli” (The Journal of Biological Chemistry, 2025).
